Experimental data taken from ChEMBL document CHEMBL3108672, “Structure-activity relationship of adenosine 5'-diphosphoribose at the transient receptor potential melastatin 2 (TRPM2) channel: rational design of antagonists” (J Med Chem, 2013).

The chains behind the UniProt entries cited, without tags or fusion partners.
UniProt O94759, whole entry: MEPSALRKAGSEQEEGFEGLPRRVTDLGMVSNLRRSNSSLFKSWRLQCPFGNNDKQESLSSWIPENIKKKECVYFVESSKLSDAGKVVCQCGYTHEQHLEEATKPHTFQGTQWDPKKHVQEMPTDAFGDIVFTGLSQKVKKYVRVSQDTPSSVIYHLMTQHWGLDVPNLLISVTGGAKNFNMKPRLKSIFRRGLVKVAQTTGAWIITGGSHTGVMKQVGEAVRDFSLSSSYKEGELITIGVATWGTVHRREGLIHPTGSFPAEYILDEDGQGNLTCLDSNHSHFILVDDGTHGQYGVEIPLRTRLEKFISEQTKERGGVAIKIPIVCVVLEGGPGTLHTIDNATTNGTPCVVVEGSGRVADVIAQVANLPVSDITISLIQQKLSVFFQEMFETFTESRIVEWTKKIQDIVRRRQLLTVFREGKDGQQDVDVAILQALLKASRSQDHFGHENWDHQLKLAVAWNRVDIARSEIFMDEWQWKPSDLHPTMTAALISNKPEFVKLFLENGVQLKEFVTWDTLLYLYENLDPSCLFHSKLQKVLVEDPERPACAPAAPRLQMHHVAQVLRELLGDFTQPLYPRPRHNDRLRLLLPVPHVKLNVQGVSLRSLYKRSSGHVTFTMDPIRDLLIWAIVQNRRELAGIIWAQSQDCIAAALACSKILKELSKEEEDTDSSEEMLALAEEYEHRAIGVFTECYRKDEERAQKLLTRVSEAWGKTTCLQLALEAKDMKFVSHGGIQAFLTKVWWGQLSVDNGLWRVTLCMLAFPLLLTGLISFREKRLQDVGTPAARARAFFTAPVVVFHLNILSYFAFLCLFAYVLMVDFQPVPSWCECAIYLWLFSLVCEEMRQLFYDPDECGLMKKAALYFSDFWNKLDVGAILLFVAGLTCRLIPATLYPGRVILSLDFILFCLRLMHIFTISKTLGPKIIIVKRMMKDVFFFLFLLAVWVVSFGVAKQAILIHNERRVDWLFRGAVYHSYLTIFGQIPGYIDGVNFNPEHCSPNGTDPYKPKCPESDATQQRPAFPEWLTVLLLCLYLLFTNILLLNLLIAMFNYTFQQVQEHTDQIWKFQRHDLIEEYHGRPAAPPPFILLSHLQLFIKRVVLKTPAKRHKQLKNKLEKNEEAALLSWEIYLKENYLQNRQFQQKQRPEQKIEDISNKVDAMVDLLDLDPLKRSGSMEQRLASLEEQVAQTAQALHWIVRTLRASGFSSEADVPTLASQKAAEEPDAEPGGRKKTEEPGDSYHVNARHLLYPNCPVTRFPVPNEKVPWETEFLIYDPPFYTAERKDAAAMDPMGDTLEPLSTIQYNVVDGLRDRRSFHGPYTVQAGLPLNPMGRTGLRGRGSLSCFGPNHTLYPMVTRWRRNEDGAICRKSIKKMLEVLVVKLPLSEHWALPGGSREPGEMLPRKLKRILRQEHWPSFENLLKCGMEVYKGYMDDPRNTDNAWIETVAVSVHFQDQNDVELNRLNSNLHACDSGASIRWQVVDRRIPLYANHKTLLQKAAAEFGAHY

Molecular target: Transient receptor potential cation channel subfamily M member 2 (Homo sapiens, UniProt O94759)

NCCOB(c1ccccc1)c1ccccc1
IC50: 1 µM
